“And” between values parts separate entries of the source, which are not always exact repeats. Identical values can stand only once.
Assay: Elution study on porcine coronary artery
Conditions: for Percent of Drug Eluted Over Time: samples 1 and 2

Percent of Drug Eluted Over Time (0.5 hours, approx. 125 μg drug on 1 cm vessel section, 25% ethanol/saline, 37° C.): 1% and 2% | Percent of Drug Eluted Over Time (1 hour, approx. 125 μg drug on 1 cm vessel section, 25% ethanol/saline, 37° C.): 3% and 4% | Percent of Drug Eluted Over Time (2 hours, approx. 125 μg drug on 1 cm vessel section, 25% ethanol/saline, 37° C.): 9% and 7% | Percent of Drug Eluted Over Time (3 hours, approx. 125 μg drug on 1 cm vessel section, 25% ethanol/saline, 37° C.): 16% and 9% | Percent of Drug Eluted Over Time (23 hours, approx. 125 μg drug on 1 cm vessel section, 25% ethanol/saline, 37° C.): 35% and 31% | Percent of Drug Eluted Over Time (Extract (after extraction, following 23 hours of elution)): 68% and 65%
Substance: everolimus cyclohexane ester [CRC-023]
Elution behavior from vessel tissue (in words) (porcine coronary arterial tissue, 25% ethanol/saline, 37° C.): slowly eluted, with most of the drug recovered after extraction

From patent US20260102380A1, “Synthesis and Characterization of Cyclic Hydrocarbon Esters of Everolimus” (BIOTRONIK AG, priority 2022, published 2026)
